These results are taken from US20250302832A1, “PYRAZINE DERIVATIVES AND USES THEREOF” (FOGHORN THERAPEUTICS INC., priority 2022, published 2025).

Protein sequences, listed by entry. Tags and fused reporters are not part of them.
UniProt P51532, whole entry: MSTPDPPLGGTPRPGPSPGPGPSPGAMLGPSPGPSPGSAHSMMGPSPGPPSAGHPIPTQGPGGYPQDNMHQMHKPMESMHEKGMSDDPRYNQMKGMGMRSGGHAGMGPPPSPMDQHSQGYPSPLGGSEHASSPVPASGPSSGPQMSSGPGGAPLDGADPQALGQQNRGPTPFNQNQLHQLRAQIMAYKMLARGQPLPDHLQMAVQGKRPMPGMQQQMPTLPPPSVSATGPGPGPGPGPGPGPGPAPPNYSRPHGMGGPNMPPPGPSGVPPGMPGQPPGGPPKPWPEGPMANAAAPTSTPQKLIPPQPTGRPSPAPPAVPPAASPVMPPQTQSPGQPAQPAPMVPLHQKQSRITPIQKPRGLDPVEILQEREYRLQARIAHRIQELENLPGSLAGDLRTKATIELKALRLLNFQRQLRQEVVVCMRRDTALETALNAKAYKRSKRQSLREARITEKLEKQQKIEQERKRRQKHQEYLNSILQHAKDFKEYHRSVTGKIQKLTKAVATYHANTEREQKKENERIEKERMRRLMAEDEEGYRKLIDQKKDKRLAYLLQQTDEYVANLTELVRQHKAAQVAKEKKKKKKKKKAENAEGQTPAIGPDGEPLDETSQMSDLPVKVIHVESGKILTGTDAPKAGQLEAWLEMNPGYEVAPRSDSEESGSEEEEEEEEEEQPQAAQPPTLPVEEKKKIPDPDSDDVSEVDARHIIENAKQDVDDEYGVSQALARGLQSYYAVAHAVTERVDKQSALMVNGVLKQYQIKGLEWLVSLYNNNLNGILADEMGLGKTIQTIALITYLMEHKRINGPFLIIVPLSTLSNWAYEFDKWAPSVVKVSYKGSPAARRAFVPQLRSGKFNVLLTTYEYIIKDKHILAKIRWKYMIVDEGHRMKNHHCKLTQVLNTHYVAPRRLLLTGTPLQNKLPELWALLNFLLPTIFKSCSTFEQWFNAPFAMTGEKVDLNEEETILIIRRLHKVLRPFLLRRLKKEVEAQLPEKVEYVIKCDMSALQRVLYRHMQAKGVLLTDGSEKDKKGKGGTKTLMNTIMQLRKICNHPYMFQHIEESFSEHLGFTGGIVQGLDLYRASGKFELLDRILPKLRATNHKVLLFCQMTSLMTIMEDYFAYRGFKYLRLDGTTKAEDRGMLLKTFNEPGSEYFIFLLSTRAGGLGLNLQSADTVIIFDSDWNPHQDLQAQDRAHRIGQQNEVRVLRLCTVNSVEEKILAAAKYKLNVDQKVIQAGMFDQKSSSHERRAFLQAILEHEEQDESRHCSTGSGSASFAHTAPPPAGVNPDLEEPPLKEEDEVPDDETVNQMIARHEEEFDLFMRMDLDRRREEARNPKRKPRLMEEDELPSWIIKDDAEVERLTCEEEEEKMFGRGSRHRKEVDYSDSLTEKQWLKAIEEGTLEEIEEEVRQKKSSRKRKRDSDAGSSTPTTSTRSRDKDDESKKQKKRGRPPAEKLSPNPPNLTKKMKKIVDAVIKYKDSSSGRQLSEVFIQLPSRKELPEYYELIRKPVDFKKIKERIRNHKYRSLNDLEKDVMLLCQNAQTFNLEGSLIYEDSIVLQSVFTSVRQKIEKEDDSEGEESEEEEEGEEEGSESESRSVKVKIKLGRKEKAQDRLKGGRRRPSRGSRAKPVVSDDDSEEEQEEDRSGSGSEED

This experiment has as its target T1, HiBit-BRG1 fusion protein (Homo sapiens, UniProt P51532).
T1 construct: expressed in transfected cells
Briefly: HiBiT-BRG1 cell-based degradation assay (Nano-Glo HiBiT lytic detection, 24 h). The following applies: HeLa, read-out: BRG1 HiBit Degradation Maximum (%). The method, then: Procedure: A stable HeLa cell line expressing HiBiT-BRM was generated. On day 0, 5000 cells were seeded in 40 μL of media into each well of 384-well cell culture plates. […] Subsequently plates were incubated for 24 h in a standard tissue culture incubator and equilibrated at room temperature for 15 minutes. Nano-GB HiBiT Lytic Detection System (Promega N3050) reagent was freshly prepared and 20 ul was added to each well. Upon addition of this LgBit-containing reagent, the HiBiT and LgBiT proteins associate to form the luminescent NanoBiT luciferase. The plates were shaken for 10 minutes at room temperature and the bioluminescence read using an EnVision plate reader (PerkinElmer).
For measurement of BRG1 degradation, a stable HeLa cell line expressing HiBit-BRG1 and LgBit was generated. The same protocol as above was then followed.
The degradation % was calculated using the following formula: % degradation=100%−100%×(Lumsample−LuMLC)/(LuMHC−LuMLC). DMSO treated cells are employed as High Control (HC) and 2 μM of a known BRM/BRG1 degrader standard treated cells are employed as Low Control (LC).
On the technique in general: HiBiT is a short tag that completes a luciferase, so light tracks the accessible tagged protein.

With `Cc1ncsc1-c1ccc([C@H](C)NC(=O)[C@@H]2C[C@@H](O)CN2C(=O)[C@@H](c2cc(OCCCN3CC(c4cc5nnc(-c6ccccc6O)cc5[nH]4)C3)no2)C(C)C)cc1` [Compound 3, (2S,4R)-4-hydroxy-1-((R)-2-(3-(3-(3-(3-(2-hydroxyphenyl)-5H-pyrrolo[3,2-c]pyridazin-6-yl)azetidin-1-yl)propoxy)isoxazol-5-yl)-3-methylbutanoyl)-N-((S)-1-(4-(4-methylthiazol-5-yl)phenyl)ethyl)pyrrolidine-2-carboxamide, formic acid], the Dmax is less than 50%.
